# Bioassay records as filed in PubChem BioAssay.
# ClpP mod: qHTS Assay for Activators of ClpP; ATP-dependent Clp protease proteolytic subunit (Bacillus subtilis (strain 168)), P80244; purified B. subtilis ClpP, FRET peptide cleavage, 20 min; Potency, µM (series often up to 57.5 µM), for the others: at the top dose activity change, negative = active; hit rate 1.9% among 340,000; AID 651965, 2013; active means well fitted falling curve with a large enough effect; inconclusive means small, poorly fitted or top-dose-only effect; inactive means no such curve, though single readings can be large or run the other way; further: potency means the concentration at half of the fitted maximal effect; the source files actives as falling curves though it sought activators and does not explain the sign; nearly all actives have a fitted effect of over 65% in size
#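 ClpP 10 microg/mL final, pH 8 Tris/KCl buffer with BSA, glycerol, Tween-20; compound pinned in; FRET-FV substrate; RT 20 min; Ex320/Em430; ΔFRET vs ADEP 5.8 microM, DMSO, no enzyme.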
# Nrf2 inh: blocks Nrf2 signaling; AID 504444; Potency, µM (highest dose often 46 µM), without a hit: top-dose activity change, negative = inhibition, hits mostly inhibitors; A549 ARE-Fluc reporter, luciferase luminescence, 18-24 h; hit rate 2.1% among 360,000; further: potency means the concentration at half of the fitted maximal effect; on the % scale 0 is the no-effect control and ±100 the full control effect; nearly all actives have a fitted effect of over 60% in size
#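 A549 ARE_Fluc cells (5000/well, 5% FBS OPTI-MEM) pre-incubated 2 h, then treated with compounds 18-24 h at 37C/5% CO2 in concentration-response. CellTiter-Fluor viability read first; BugLite luciferase luminescence after 15 min at room temperature gives Nrf2 activity.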
# A549 viability: counter-screen for Nrf2 inhibitors: cytotoxicity in A549 cells; hit rate 0.16% among 390,000; Potency, µM (titrated, usually from 46 µM), for the others: top-dose activity change, negative = cytotoxicity, usual class: inhibitors; A549 ARE-Fluc cells, CellTiter-Fluor viability, 18-24 h; further: potency means the concentration at half of the fitted maximal effect; on the % scale 0 is the no-effect control and ±100 the full control effect
#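 A549 ARE-Fluc cells in 5% FBS OPTI-MEM, 5000 cells/well, rested 2 h then exposed to compounds in concentration-response for 18-24 h at 37 °C. Viability by CellTiter-Fluor fluorescence (Ex 405/Em 525) after 30 min; luciferase luminescence (BugLite, 15 min, RT) read afterwards.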
# Nrf2 activator: activates Nrf2 signaling; hit rate 0.31% among 410,000; AREc32 ARE-luciferase reporter (MCF7-derived line), luminescence, 24 h; Potency, µM (top dose mostly 46.1 µM), inactives show at the top dose activation, actives largely listed as activators; further: potency means the concentration at half of the fitted maximal effect; % of control where 0% means no effect; nearly all actives have a fitted effect of over 65% in size
#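 AREc32 cells carrying an ARE-driven firefly luciferase reporter were seeded at 1000 cells/well in OPTI-MEM with 5% FBS, then exposed to compound for 24 hr at 37 deg C. Luminescence was read with Steady-Glo after 30 min at RT.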
# miR-21 reporter: raises the signal of a miR-21 reporter | HeLa miR-21 FLuc reporter, luciferase, 48 h | Potency, µM (highest dose often 38.3 µM), inactives show at the highest dose reporter change, positive = more light | 340,000 tested, under 10 active | AID 2288; active = well fitted rising curve with a large enough effect; inconclusive = small, poorly fitted or top-dose-only effect; inactive = no such curve, though single readings can be large or run the other way;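 note: % of control where 0% means no effect; miR-21 action dims this reporter so a rising signal means less miR-21 action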
#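 Using DMEM plus 10% FBS, HeLa miR-21-FLuc cells are incubated with test compounds (final up to about 40uM) for 48 hours; firefly luciferase signal is then imaged following reagent-mediated lysis.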
# TCR activator: activates T cell receptor signaling; primary human leukocytes, anti-CD3, IL-2 HTRF, 48 h; Potency, µM (highest dose often 9.22 µM), inactives show at the top dose activation of IL-2 secretion, hits mostly activators; 330,000 tested, under 10 active; AID 504894; further: % of control where 0% means no effect
#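 48 hr co-incubation of compounds, a-CD3 beads and primary human leukocytes; IL-2 quantified homogeneously by HTRF with anti-IL-2 K and d2 conjugates.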
# ClpP inh valid: validation of B. subtilis ClpP protease hits (inhibitors) | shares compounds with ClpP mod | purified B. subtilis ClpP, FRET-FV substrate cleavage, 20 min | Potency, µM (titrated, usually from 57.5 µM), inactives show at the top dose activity change, negative = inhibition, hits mostly inhibitors | hit rate 40% among 470 | AID 743245; further: potency means the concentration at half of the fitted maximal effect; on the % scale 0 is the no-effect control and ±100 the full control effect; nearly all actives have a fitted effect of over 70% in size
# * hit, by the source's call; ? = inconclusive; nt = not tested or not shown; [ ] = remark or other dose. This is a sample that favours compounds with a hit; in the whole collection about 3.7% have one here. Unless noted, the call rests on the fitted dose curve; in most records, active means well fitted curve in the direction sought with a large enough effect; inconclusive means small, poorly fitted or top-dose-only effect, or another doubt; inactive means no such curve, though single readings can be large; an effect the other way counts as inactive or inconclusive.
SMILES,ClpP mod,Nrf2 inh,A549 viability,Nrf2 activator,miR-21 reporter,TCR activator,ClpP inh valid
COc1ccc(NC(=O)CCS(=O)(=O)c2nc(-c3cccs3)cc(C(F)(F)F)n2)cc1OC,17%,6%[9.27 µM],2%,-7%,?,nt,nt
COc1cc(NC(=O)CCS(=O)(=O)c2nc(-c3cccs3)cc(C(F)(F)F)n2)cc(OC)c1OC,44%,13%[9.27 µM],2%,-4%,21%,nt,23%
COc1ccc2c(c1OC)C(=O)OC2Nc1nc2ccccc2s1 (centres undefined),-3%,-12%,-8%,0%,-19%,-10%,nt
COc1cccc(C2C(C(=O)Nc3nc4ccccc4s3)=C(C)NC3=C2C(=O)CC(C)(C)C3)c1OC (centres undefined),383%,16µM*,-15%,-1%,-7%,-6%,8.6µM*
CCN1CCN(C(=O)C(C)Sc2nnc3nc(C)cc(C)n23)CC1 (centres undefined),-12%,-10%,1%,1%,nt,4%,nt
Cc1ccc(CNc2nc3ccccc3n2C)o1,-7%,?,?,5%,-52%,nt,nt
Cn1c(-c2ccc(CN3CCCCC3)o2)nc2ccccc21,3.5µM*,?,11%,0%,-28%,-3%,17µM*
O=C(COc1ccc2oc3c(c2c1)CCCC3)Nc1ccc(Cl)cc1,1%,4%,7%,1%,3%,nt,nt
O=C(CN1CCN(Cc2ccccc2)CC1)NCCc1ccccc1,6.3µM*,9%,1%,2%,-4%,-12%,1%
O=C(Nc1cccc(-c2nc3ccccc3o2)c1)c1ccc(-c2ccc(Br)cc2)o1,4µM*,0%,-7%,5%,-4%,nt,11%
CSc1ccc(CCNC(=O)c2cc(C)nc3c2c(C)nn3-c2ccccc2)cc1,67%,-21%,?,0%,5%,nt,17µM*
Cc1ccc(CCNC(=O)c2cc(C)nc3c2c(C)nn3-c2ccc(C)cc2)cc1,70%,-6%,4%,-1%,-1%,nt,27µM*
CCCN=C1N(CC)C[C@@H]2[C@@H]3C(=O)N(Cc4ccccc4)C(=O)[C@@H]3[C@](Cc3ccccc3)(C(=O)OC)N12,1%,1%,-4%,1%,nt,3%[46.1 µM],nt
Cc1ccc(-c2nnc(-c3cccnc3)o2)cc1,4%,?,0%,0%,-62%,-2%,nt
c1cncc(-c2nnc(-c3cccs3)o2)c1,8.9µM*,5%,-3%,7%,-32%,-71%,19µM*

# Three of the entries above in order of the TCR activator value, rising.
SMILES	ClpP mod	miR-21 reporter	TCR activator	ClpP inh valid
O=C(CN1CCN(Cc2ccccc2)CC1)NCCc1ccccc1	6.3µM*	-4%	-12%	1%
COc1cccc(C2C(C(=O)Nc3nc4ccccc4s3)=C(C)NC3=C2C(=O)CC(C)(C)C3)c1OC (centres undefined)	383%	-7%	-6%	8.6µM*
Cn1c(-c2ccc(CN3CCCCC3)o2)nc2ccccc21	3.5µM*	-28%	-3%	17µM*

# 4 entries drawn at random from those above:
SMILES,ClpP mod,Nrf2 inh,A549 viability,Nrf2 activator,miR-21 reporter,TCR activator,ClpP inh valid
Cn1c(-c2ccc(CN3CCCCC3)o2)nc2ccccc21,3.5µM*,?,11%,0%,-28%,-3%,17µM*
COc1cccc(C2C(C(=O)Nc3nc4ccccc4s3)=C(C)NC3=C2C(=O)CC(C)(C)C3)c1OC (centres undefined),383%,16µM*,-15%,-1%,-7%,-6%,8.6µM*
O=C(CN1CCN(Cc2ccccc2)CC1)NCCc1ccccc1,6.3µM*,9%,1%,2%,-4%,-12%,1%
Cc1ccc(-c2nnc(-c3cccnc3)o2)cc1,4%,?,0%,0%,-62%,-2%,nt

# (list continues)
SMILES,ClpP mod,Nrf2 inh,A549 viability,Nrf2 activator,miR-21 reporter,TCR activator,ClpP inh valid
Cc1ccc(C)c2[nH]c(=O)c(CN(CCCN(C)C)C(=O)NCc3ccccc3)cc12,3.5µM*,6%,-9%,0%,-9%,0%,?
Cc1cc(C)c2cc(CN(CCCN(C)C)C(=S)NCc3ccccc3)c(=O)[nH]c2c1,0%,3%,7%,8%,-6%,-109%,nt
Cc1ccn2c(Nc3ccc4c(c3)OCO4)c(-c3ccc(N(C)C)cc3)nc2c1,4%,10%,-14%,8%,-17%,nt,nt
Cc1ccn2c(Nc3ccc4c(c3)OCO4)c(-c3ccc(Cl)cc3)nc2c1,4µM*,9%,1%,4%,-18%,nt,-22%
Cc1cccc(NS(=O)(=O)c2cccc(C(=O)NCC(c3ccco3)N3CCCCC3)c2)c1 (centres undefined),3.2µM*,?,-9%,4%,nt,7%,-2%
CCOc1ccc(NC(=O)c2cc3cc4ccc(OC)cc4nc3o2)cc1,53%,?,-10%,0%,-2%,-1%,27µM*
O=C(O)c1cc(-c2ccc3c(c2)OCO3)nc2ccccc12,-4%,9%,-16%,0%,-6%,4%,nt
CC(NC(=O)c1cc(-c2ccc3c(c2)OCO3)nc2ccccc12)C(C)(C)C (centres undefined),40%,23%,15%,5%,-1%,2%,24µM*
COc1ccccc1Nc1nc(NCCCCO)nc(N2CCCC2)n1,nt,?,-18%,7%,nt,-7%,nt
CCc1cc(C)cc(OCCOc2ccccc2/C=N/NC(C)=O)c1,-2%,-15%,17%,1%,14%,1%,nt
Cc1ccc2oc(-c3cccc(NC(=O)c4cc(-n5cnnc5)ccc4Cl)c3)nc2c1,134%,?,?,16%,-16%,-1%[46.1 µM],-23%
Cc1ccc2oc(-c3cccc(NC(=O)c4ccccn4)c3)nc2c1,18%,26%,-6%,?,nt,-12%,nt
Cc1ccc2nc(CN3CCN(C(=O)Nc4ccc(F)cc4)CC3)oc2c1,0%,nt,-1%,4%,5%,nt,nt
COc1cc2ccc(CC(N)=O)cc2cc1OC,-6%,nt,nt,0%,nt,nt,nt
Fc1ccc(-c2cnc(-c3cccs3)o2)cc1,6.3µM*,28%,-14%,?,-56%,-25%,5.4µM*
Nc1c(-c2cccs2)cnc2c(-c3ccc(F)cc3)cnn12,nt,?,-5%,3%,-74%,13%,nt
CCCn1cc(CN2CCC(n3nccc3NC(=O)c3ccccc3)CC2)c(C)n1,3.2µM*,11%,4%,0%,-1%,-2%,0%
COc1ccc(-n2nc3ccc(NC(=O)c4ccc(-c5cc(Cl)ccc5Cl)o4)cc3n2)cc1,3%,?,3%,6%,-14%,nt,nt
O=C(Nc1ccc2nn(-c3ccccc3)nc2c1)c1ccc(-c2cccc(Cl)c2)o1,59%,-14%,-9%,6%,-46%,nt,-17%
CCOc1ccc(NS(=O)(=O)c2ccc(C(=O)N3CC(C)OC(C)C3)cc2)cc1 (centres undefined),1%,-16%,-2%,0%,nt,0%,nt
CCOc1ccc(S(=O)(=O)Nc2ccc(C(=O)N3CC(C)OC(C)C3)cc2)cc1 (centres undefined),5.6µM*,-15%,0%,0%,nt,1%,0%
CC1(C(=O)N(CC(=O)NC2CCCC2)Cc2ccco2)CC(=O)N=C2C=CC=CN21 (centres undefined),3.2µM*,nt,-4%,0%,-2%,-2%,17µM*
COc1ccc(NCc2cc3cc4c(cc3n(CC(=O)Nc3cc(C)cc(C)c3)c2=O)OCO4)cc1,24%,18%,-3%,-1%,-1%,nt,nt
COc1ccc(NCc2cc3cc4c(cc3n(CC(=O)Nc3ccc(C)c(C)c3)c2=O)OCO4)cc1,60%,-15%,10%,0%,1%,nt,?
